{
  "source": "patent US20090155799A1",
  "about": "(published 2009)",
  "binders": {"B1": {"name": "anti-REG4 mouse monoclonal antibody clone 21-1 (antibody, V domains shown)", "VH": "EVQLQQSGTVLARPGASVKMSCKASGYTFTSYWMHWVKQRPGQGLEWIGAIYPGNSDTSYNQKFKGKAKLTAVTSTSTAYMELSSLTNEDSAVYYCTGPSLLGFAYWGQGTLVTVSA", "VL": "DIVMTQSHKFMSTSVGDRVSITCKASQDVSTAVAWYQQKPGQSPKLLIYSASYRYTGVPDRFTGSGSGTDFTFTISSVQAEDLAVYYCQQHYSTPRTFGGGTKL", "notes": "also called monoclonal clone 21-1 antibody"}},
  "key": {"[1]": {"biological_target": "T1, REG4 protein, native human (in patient serum and in PDAC tissue) (human, UniProt Q9BYZ8 23-158)", "T1 construct": "Endogenous protein in human serum specimens and tissue sections; also called serum REG4; REGIV", "experiment": "sandwich ELISA on serum specimens, immobilized monoclonal antibody, HRP-labeled anti-REG4 polyclonal antibody for detection", "method": "C8 MAXI NUNC-Immuno BreakApart Module (NUNC) was used as a microplate for the sandwich ELISA. Anti-REG4 monoclonal antibodies (clone 21-1, 24-1, and 34-1) were diluted with 0.1 M carbonate buffer (pH 9.6) to 10 μg/mL, added to the microplate at 50 μL/well, and left to stand overnight at 4° C. to immobilize each antibody by physical adsorption. After blocking with 1% BAS/PBS (RT, 2 hours), the blocking solution was discarded, and the residues were air-dried to prepare an assay plate. Specimens were diluted 5 times in reaction buffer (PBS, 0.1% Tween20, 1% BSA, pH 7.3), added to the assay plate at 50 μL/well, and reacted at room temperature for one hour. After washing four times with washing buffer (0.13% Tween20, 0.15 M NaCl/10 mM NaH₂PO₄), an HRP-labeled anti-REG4 polyclonal antibody was adjusted to 1.5 μg/mL with an enzyme-labeled antibody diluent (1% BAS, 0.135 M NaCl/20 mM HEPES) and added at 50 µL/well. After reaction at the room temperature for one hour, the plate was washed four times with washing buffer. An enzyme substrate solution (Moss Inc.; TMB Ultra Sensitive Substrate) was added at 50 μL/well for coloring, and after 30 minutes, 0.36NH₂SO₄ was added at 50 μL/well to terminate the color reaction. The absorbance (A450/A620) was measured to calculate REG4 concentration in the serum based on the calibration curves of each antibody (FIG. 7)."}, "[2]": {"biological_target": "T2, Recombinant hREG4 (rhREG4), myc-His tagged, purified from culture supernatant of REG4 mH/293T cells (human, UniProt Q9BYZ8 23-158)", "T2 construct": "The REG4 ORF was cloned in frame with the myc-His tag and the protein was secreted into the supernatant of 293T cells; also called purified antigen; tagged antigen", "experiment": "immunoprecipitation of tagged antigen from culture supernatant on Protein G Sepharose, Western blot detection"}},
  "data": [
    {"binder": "B1", "values": [
      {"measurement": "binding result", "setting": "[1]", "value": "binds"},
      {"measurement": "binding result", "setting": "[2]", "value": "binds"}
    ]}
  ]
}
